The values below come from patent US10675317B2, “Use of ginseng extract, ginsenoside and ginsenoside derivative in the preparation of medicine or health care product for treating cytomegalovirus infection disorders” (priority 2015, dated 2020).

In the experiment the test system is HCMV infected mice. The experiment in a line: Spleen and thymus gland indexes of HCMV infected mice. Format: in vivo, Kunming mice. The conditions noted are these: for Spleen indexes / Thymus gland indexes: day 21. As to the method:
The mice were injected with HCMV10^−3 (0.1 ml/mouse) through the caudal vein of mouse tails; 0.9% normal saline is injected to the normal control group, 0.1 ml/piece; and intragastric administration is started according to the determined dosage on the second day of infection, with 21 days of medication.
During the experiment. Animals were weighed and the thymus and spleen were weighed on the 21st day of administration, and their indices (thymus index, spleen index, weight of thymus and spleen organs per 10 g body weight (mg)) were measured.
Thymus glands and spleens are important immune organs, with the organ indexes reflecting the strength of immune functions of organisms to a certain degree. The thymus glands have the main functions of generating T-lymphocytes and secreting thymosin, and mainly take part in cellular immunity; and abundant lymphocytes and macrophages are contained in the spleens. The weight of the thymus glands and the spleens is related to functions thereof as well as the quantity of immune cells therein, and the height depends on the proliferation degree of the lymphocytes therein.

The mark [1] stands for this setting: high-dosage group 0.3 mg/kg/d intragastric.
Setting [2] is: low-dosage group 0.012 mg/kg/d intragastric.
Setting [3] is: medium-dosage group 0.06 mg/kg/d intragastric.

Take “20(R)-ginsenoside Rg3 8-N-butyrate [Ginsenoside rg3 derivatives]”: the “Spleen indexes and thymus gland indexes compared with the model group (in words)” value was “significantly different from those of the model group”. Besides, under setting [1], the Spleen indexes was 0.062 ± 0.032 and the Thymus gland indexes is recorded as 0.032 ± 0.017. Under setting [2], this substance displayed a Spleen indexes of 0.059 ± 0.036 and a Thymus gland indexes of 0.027 ± 0.006. Under setting [3], this substance gave a Spleen indexes of 0.061 ± 0.027 and a Thymus gland indexes of 0.029 ± 0.008.
